Columns and labels:
[1] = tested on: rat carageenan footpad edema; assay: Rat carageenan footpad edema model; type: in vivo; conditions: rat carageenan footpad model (Example 14)
CYP2D6 = CYP2D6 (Homo sapiens, UniProt P10635); assay: P450 isoform studies (specific inhibitors, purified recombinant enzymes): O-demethylation; type: in vitro ADME
[2] = Metabolism by human liver microsomes; type: in vitro ADME; conditions: 0.125 mg/mL protein
[3] = Metabolism by rat liver microsomes; type: in vitro ADME; conditions: 0.125 mg/mL protein
CYP3A4 = CYP3A4 (Homo sapiens, UniProt P08684); assay: P450 isoform studies (specific inhibitors, purified recombinant enzymes): side chain hydroxylation; type: in vitro ADME
[4] = Metabolism by mouse liver microsomes; type: in vitro ADME; conditions: 0.125 mg/mL protein

Protein sequences, listed by entry. Tags and fused reporters are not part of them.
UniProt P10635, whole entry: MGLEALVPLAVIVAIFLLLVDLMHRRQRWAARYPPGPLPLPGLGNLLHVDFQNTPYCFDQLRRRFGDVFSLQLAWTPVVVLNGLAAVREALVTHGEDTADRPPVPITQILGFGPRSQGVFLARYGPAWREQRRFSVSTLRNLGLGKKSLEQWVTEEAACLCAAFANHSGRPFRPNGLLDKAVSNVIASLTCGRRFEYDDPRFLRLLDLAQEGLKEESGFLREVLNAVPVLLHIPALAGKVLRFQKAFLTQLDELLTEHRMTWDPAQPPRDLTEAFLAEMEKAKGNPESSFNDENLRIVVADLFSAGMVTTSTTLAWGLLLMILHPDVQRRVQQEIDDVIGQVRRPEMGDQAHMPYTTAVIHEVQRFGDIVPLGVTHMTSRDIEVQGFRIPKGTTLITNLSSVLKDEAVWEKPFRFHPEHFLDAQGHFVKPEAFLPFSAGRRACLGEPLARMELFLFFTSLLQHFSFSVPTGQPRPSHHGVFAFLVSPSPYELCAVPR
UniProt P08684, whole entry: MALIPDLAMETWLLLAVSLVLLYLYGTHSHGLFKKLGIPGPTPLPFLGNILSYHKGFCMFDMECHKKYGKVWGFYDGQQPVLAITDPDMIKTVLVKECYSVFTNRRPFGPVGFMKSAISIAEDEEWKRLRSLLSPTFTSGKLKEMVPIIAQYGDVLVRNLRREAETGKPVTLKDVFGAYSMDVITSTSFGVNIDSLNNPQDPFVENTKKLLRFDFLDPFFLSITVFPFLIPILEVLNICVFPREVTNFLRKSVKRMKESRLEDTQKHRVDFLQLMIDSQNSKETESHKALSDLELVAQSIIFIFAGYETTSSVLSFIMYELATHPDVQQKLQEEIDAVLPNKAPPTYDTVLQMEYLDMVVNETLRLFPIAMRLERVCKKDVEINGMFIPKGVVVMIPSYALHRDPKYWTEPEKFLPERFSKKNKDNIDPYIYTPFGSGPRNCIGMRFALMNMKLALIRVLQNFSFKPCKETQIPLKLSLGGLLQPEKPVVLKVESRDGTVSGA

| Structure (SMILES) | ED50 [1] [mg/kg] | enzyme catalyzing O-demethylation (CYP2D6) | half-life, human liver microsomes [2] [min] | half-life, rat liver microsomes [3] [min] | enzyme catalyzing side chain hydroxylation (CYP3A4) | half-life, mouse liver microsomes [4] [min] |
| --- | --- | --- | --- | --- | --- | --- |
| COc1ccc2c(c1)c(CC(=O)NCCc1ccccc1)c(C)n2C(=O)c1ccc(Cl)cc1 | 0.8 | CYP2D6 | 21 | 11 | CYP3A4 | 51 |
| COc1ccc2c(c1)c(CC(=O)Nc1cccnc1)c(C)n2C(=O)c1ccc(Cl)cc1 |  |  |  | 75 |  |  |
